Measurements from patent publication US20230241236A1, “METHODS AND COMPOSITIONS FOR CANCER TREATMENT” (DINGFU BIOTARGET, CO., LTD., priority 2020, published 2023).

Test system: B16-EGFR-SIY melanoma cells
Test: B16-EGFR-SIY melanoma model in mice, immunoconjugate in combination with oxiplatin
Details: oxiplatin 15 mg/kg tail vein day 7; immunoconjugate 0.5 mg/kg i.p. day 7, 10, 14; 5 mice per group

In the case of oxaliplatin [oxiplatin], the “death of mice due to toxicity” value is reported as “all of the mice in Group oxiplatin and Group Fc9-(IL10)2 and oxiplatin were dead after 14 days”.
